Assay: Water solubility in 100 g of water at 25° C.
Conditions: for Water solubility: in 100 g of water at 25° C., after 24 hours
Source text: The term “solubility” used herein in regard to water solubility includes cases where the sample completely dissolves in deionized water to form a homogeneous mixture, and cases where the sample is completely emulsified. Here, “completely” means that no mass of the sample remains in the deionized water.

Substance	Water solubility	Water solubility (g)
Dodecanoic acid (C12) monoester of butylene glycol [COMPOL BL]	<0.05 g	
Isopropyl citrate		20< g
Octadecanoic acid (C18) monoester of butylene glycol [COMPOL BS]	<0.05 g	

— patent publication US9314383B2, “Absorptive article” (UNICHARM CORPORATION, priority 2012, dated 2016)
